Only a part is listed here, and it is no random draw. Activity calls are given as the source filed them.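 Rule for the calls: active = compounds giving at least 50% protection of heart cells from peroxide-induced death in the single-dose screen, raw or plate-pattern-corrected value; inactive = the rest.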

The assay in a line: cardioprotection against H2O2-induced cell death, primary screen, uHTS, H9c2 cells, ATPLite luminescence (AID 588492).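 Note: 0% = DMSO wells with peroxide and 100% = DMSO wells without peroxide.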 The settings on record: H9c2 cardiomyocytes, H2O2 injury protection, 2 h, at 20 µM, active compounds read high. (In general: Cellular ATP, detected with luciferase, serves as a proxy for viable cell number.)
For `CCOC(=O)N1CCC(Nc2ccc(F)cc2)CC1`, the protection from H2O2 cell death was inactive: 3.5%.

For the compound `COc1ccc(NC2CCN(CCc3ccccc3)CC2)c(OC)c1`, the protection from H2O2 cell death is inactive: -3.9%.

For the compound `O=C(NCC1(N2CCCCC2)CCCCC1)c1ccc(F)cc1`, the protection from H2O2 cell death is inactive: -1.2%.

With `CCCCOc1ccc(C(=O)NCC2(N3CCOCC3)CCCCC2)cc1`, the protection from H2O2 cell death is inactive: -5%.

For the compound `CCCCn1nnnc1C(c1cc2ccccc2o1)N1CCC(n2c(=O)[nH]c3ccccc32)CC1` (centres undefined), the protection from H2O2 cell death was inactive: 12.3%.

In the case of `O=P1(N(CCCl)CCCl)SCCCS1`, the protection from H2O2 cell death is inactive: 0.6%.

As for `O=C(NCC1(N2CCOCC2)CCCCC1)c1cc2ccccc2o1`, the protection from H2O2 cell death was inactive: -4.7%.

Regarding `Cc1cc(C)cc(N(C(=O)c2ccccc2)C2CCN(C(=O)OC(C)(C)C)CC2)c1`, the protection from H2O2 cell death is inactive: 2%.

Take `O=c1[nH]c2ccccc2n1C1CCN(C(c2ccccc2OC(F)(F)F)c2nnnn2C2CCCCC2)CC1` (centres undefined): the protection from H2O2 cell death is inactive: -5.6%.

For the compound `O=C(NCC1(N2CCCCC2)CCCCC1)c1ccc(Cl)nc1`, the protection from H2O2 cell death is inactive: 3.1%.

Regarding `CCCCn1nnnc1C(c1ccc(OC)cc1)N1CCC(n2c(=O)[nH]c3ccccc32)CC1` (centres undefined), the protection from H2O2 cell death was inactive: 6.4%.

Regarding `CCOC(=O)N1CCC(Nc2ccc(OC)cc2)CC1`, the protection from H2O2 cell death is inactive: 4.2%.

For the compound `COc1ccc(Cl)cc1C(=O)NCC1(N2CCOCC2)CCCCC1`, the protection from H2O2 cell death is inactive: -3.5%.

In the case of `O=c1[nH]c2ccccc2n1C1CCN(C(c2cc3ccccc3o2)c2nnnn2C2CCCCC2)CC1` (centres undefined), the protection from H2O2 cell death was inactive: -9%.

As to `O=C(OC1CN2CCC1CC2)C1c2ccccc2Oc2ccccc21` (centres undefined), the protection from H2O2 cell death is inactive: -5.5%.

As for `O=C(NCC1(N2CCCCC2)CCCCC1)c1ccc(Cl)s1`, the protection from H2O2 cell death was inactive: 2.2%.

Take `N#CC1(Nc2ccccc2)CCN(Cc2ccccc2)CC1`: the protection from H2O2 cell death was inactive: 0.1%.

With `CCCCn1nnnc1C(c1cccs1)N1CCC(n2c(=O)[nH]c3ccccc32)CC1` (centres undefined), the protection from H2O2 cell death was inactive: 23.4%.

Consider `CCCCn1nnnc1C(CC)N1CCC(n2c(=O)[nH]c3ccccc32)CC1` (centres undefined), for which the protection from H2O2 cell death was inactive: 7.2%.

As for `O=C(NCC1(N2CCCCC2)CCCCC1)c1cccs1`, the protection from H2O2 cell death is inactive: 1.2%.

Take `O=C(NCC1(N2CCCCC2)CCCCC1)c1ccc(=O)[nH]c1`: the protection from H2O2 cell death was inactive: 11.3%.

For `CCC(c1nnnn1C1CCCC1)N1CCC(n2c(=O)[nH]c3ccccc32)CC1` (centres undefined), the protection from H2O2 cell death is inactive: 1.9%.

`COc1ccc(C(=O)NCC2(N3CCCCC3)CCCCC2)c(OC)c1OC`: the protection from H2O2 cell death was inactive: -2.9%.

With `CC(C)(C)OC(=O)N1CCC(N(C(=O)c2ccccc2)c2ccc(F)cc2)CC1`, the protection from H2O2 cell death was inactive: 6.8%.

On to `COc1ccc(C(=O)NCC2(N3CCCCC3)CCCCC2)cc1`, for which the protection from H2O2 cell death was inactive: -2.5%.

Take `Cc1cccc(NC2(C#N)CCN(Cc3ccccc3)CC2)c1`: the protection from H2O2 cell death was inactive: 1.5%.

As for `CSc1ccccc1C(=O)NCC1(N2CCCCC2)CCCCC1`, the protection from H2O2 cell death was inactive: -0.4%.

Regarding `O=C(NCC1(N2CCCCC2)CCCCC1)c1cncc(Br)c1`, the protection from H2O2 cell death is inactive: -0.9%.

Turning to `CN1CCC(Nc2cccc(F)c2)CC1`, the protection from H2O2 cell death was inactive: 10.1%.

For the compound `CCCOc1ccc(C(=O)NCC2(N(C)C)CCCCC2)cc1OC`, the protection from H2O2 cell death is inactive: -0.1%.

Take `Cc1ccc(C(=O)NCC2(N(C)C)CCCCC2)o1`: the protection from H2O2 cell death was inactive: -2.3%.

`COc1ccc(C(c2nnnn2C2CCCC2)N2CCC(n3c(=O)[nH]c4ccccc43)CC2)cc1` (centres undefined): the protection from H2O2 cell death is inactive: 4.7%.

For the compound `CN(C)c1cccc(C(=O)NCC2(N3CCCCC3)CCCCC2)c1`, the protection from H2O2 cell death was inactive: -5.7%.

In the case of `COc1ccc(CN(CCCl)CCCl)cc1Cl`, the protection from H2O2 cell death is inactive: -1.1%.

On to `CCCCn1nnnc1C(c1ccccc1OC(F)(F)F)N1CCC(n2c(=O)[nH]c3ccccc32)CC1` (centres undefined), for which the protection from H2O2 cell death was inactive: -2.5%.

Take `CC(C)c1ccc(NC2CCN(C(=O)OC(C)(C)C)CC2)cc1`: the protection from H2O2 cell death was inactive: -15.2%.

For the compound `CCCCn1nnnc1C(c1ccnc2ccccc12)N1CCC(n2c(=O)[nH]c3ccccc32)CC1` (centres undefined), the protection from H2O2 cell death is inactive: 10.8%.

Regarding `CCC(c1nnnn1C(C)(C)C)N1CCC(n2c(=O)[nH]c3ccccc32)CC1` (centres undefined), the protection from H2O2 cell death is inactive: 9.1%.

As to `O=C(NCC1(N2CCOCC2)CCCCC1)c1cc(F)c(F)cc1Cl`, the protection from H2O2 cell death was inactive: 0.6%.

Take `COc1cc(OC)c(C(=O)NCC2(N(C)C)CCCCC2)cc1OC`: the protection from H2O2 cell death is inactive: -1.3%.

As for `O=C(NCC1(N2CCCCC2)CCCCC1)c1cccc(C(F)(F)F)c1`, the protection from H2O2 cell death is inactive: 3.5%.

For `CCCCn1nnnc1C(c1cccc2ccccc12)N1CCC(n2c(=O)[nH]c3ccccc32)CC1` (centres undefined), the protection from H2O2 cell death was inactive: -4%.

As to `COc1ccc(NC2CCN(C(=O)OC(C)(C)C)CC2)cc1`, the protection from H2O2 cell death was inactive: 3%.

As to `CC(C)c1ccc(C(=O)NCC2(N3CCOCC3)CCCCC2)cc1`, the protection from H2O2 cell death was inactive: 1.7%.

Turning to `CN1CCN(CCOC(=O)C(O)(c2ccccc2)c2ccccc2)CC1`, the protection from H2O2 cell death was inactive: 3.1%.

Regarding `O=C(NCC1(N2CCOCC2)CCCCC1)c1cc(=O)[nH]c2ccccc12`, the protection from H2O2 cell death was inactive: -2.5%.

Regarding `COc1cc(C(=O)NCC2(N3CCCCC3)CCCCC2)ccc1OC(F)F`, the protection from H2O2 cell death is inactive: 0.5%.

With `O=C(NCC1(N2CCCCC2)CCCCC1)c1ccc(OC(F)F)cc1`, the protection from H2O2 cell death is inactive: -1.2%.

As to `CC(C)(C)n1nnnc1C(c1ccccc1OC(F)(F)F)N1CCC(n2c(=O)[nH]c3ccccc32)CC1` (centres undefined), the protection from H2O2 cell death is inactive: -6.1%.

Regarding `O=C(NCC1(N2CCCCC2)CCCCC1)c1cccc([N+](=O)[O-])c1`, the protection from H2O2 cell death is inactive: 11.1%.

As to `CSc1ccc(C(=O)NCC2(N3CCOCC3)CCCCC2)cc1`, the protection from H2O2 cell death is inactive: 16.1%.

`N#CC1(Nc2ccccc2)CCN(CCc2ccccc2)CC1`: the protection from H2O2 cell death was inactive: -2.1%.

Turning to `O=c1[nH]c2ccccc2n1C1CCN(C(c2ccccc2OC(F)(F)F)c2nnnn2C2CCCC2)CC1` (centres undefined), the protection from H2O2 cell death is inactive: -1.7%.

For the compound `CCN1CCC(Nc2ccc(Cl)cc2)CC1`, the protection from H2O2 cell death was inactive: -3.1%.

(Values after PubChem BioAssay AID588492 (Sanford-Burnham Center for Chemical Genomics, 2011).)
